PMC4785404, “The three-dimensional structure of Clostridium absonum 7α-hydroxysteroid dehydrogenase: new insights into the conserved arginines for NADP(H) recognition” (Scientific Reports, 2016)

Test system: NC(=O)c1ccc[n+]([C@@H]2O[C@H](COP(=O)(O)OP(=O)(O)OC[C@H]3O[C@@H](n4cnc5c(N)ncnc54)[C@H](OP(=O)(O)O)[C@@H]3O)[C@@H](O)[C@H]2O)c1
Test: purified protein
Settings: assay conditions by cited earlier methods; co-substrate not given; SD in parentheses; varied: cofactor

| Sequence | Km | kcat [s⁻¹] | kcat/Km [M⁻¹ s⁻¹] |
| --- | --- | --- | --- |
| CA 7α-HSDH (Clostridium sardiniense; R16G) | 1.77 (0.13) mM | 58.5 | 33200 |
| CA 7α-HSDH (Clostridium sardiniense; R194G) | 0.72 (0.06) mM | 28.7 | 39800 |
